Assay results reported in ChEMBL document CHEMBL2321830 (J Med Chem, 2013).

Experiments:
[1] = target: T1, Aldo-keto reductase family 1 member C1 (Homo sapiens, UniProt Q04828); experiment: Inhibition of human recombinant AKR1C1-mediated NADP+-dependent oxidation of S-(+)-1,2,3,4-tetrahydro-1-naphthol
T1 sequence (Q04828 whole entry): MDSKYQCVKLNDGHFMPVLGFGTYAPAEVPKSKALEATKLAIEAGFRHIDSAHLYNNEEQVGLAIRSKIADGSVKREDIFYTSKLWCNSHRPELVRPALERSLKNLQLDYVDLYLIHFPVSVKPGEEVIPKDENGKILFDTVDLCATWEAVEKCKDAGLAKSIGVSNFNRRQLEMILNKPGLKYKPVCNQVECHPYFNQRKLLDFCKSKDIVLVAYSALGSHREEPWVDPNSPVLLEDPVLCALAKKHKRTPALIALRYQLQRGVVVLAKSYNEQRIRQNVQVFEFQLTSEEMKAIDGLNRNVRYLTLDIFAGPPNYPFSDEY

[2] = target: T2, Aldo-keto reductase family 1 member C3 (Homo sapiens, UniProt P42330); experiment: Inhibition of human recombinant AKR1C3-mediated NADP+-dependent oxidation of S-(+)-1,2,3,4-tetrahydro-1-naphthol
T2 sequence (P42330 whole entry): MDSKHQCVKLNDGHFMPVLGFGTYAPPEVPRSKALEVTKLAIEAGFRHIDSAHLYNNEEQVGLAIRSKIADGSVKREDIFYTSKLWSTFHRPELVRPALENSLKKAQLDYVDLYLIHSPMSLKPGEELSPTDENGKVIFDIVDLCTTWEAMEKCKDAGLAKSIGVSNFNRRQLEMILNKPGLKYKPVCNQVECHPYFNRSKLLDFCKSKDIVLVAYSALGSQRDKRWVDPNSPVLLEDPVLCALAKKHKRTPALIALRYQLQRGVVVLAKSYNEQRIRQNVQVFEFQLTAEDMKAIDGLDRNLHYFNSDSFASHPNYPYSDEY

Structure (SMILES) | IC50 [1] | IC50 [2]
COc1ccc2c(c1)c(CCC(=O)O)c(C)n2C(=O)c1ccc(Cl)cc1 | > 100000 nM | –
COc1ccc2c(c1)c(C)c(CCC(=O)NS(=O)(=O)C(F)(F)F)n2C(=O)c1ccc(Cl)cc1 | – | 1440 nM
